Measured values taken from patent publication US20090036518A1, “PHARMACEUTICAL COMPOSITION CONTAINING FLAVONOIDS” (TAIPEI MEDICAL UNIVERSITY, priority 2005, published 2009).

Test system: high affinity rolipram binding sites (HARBS) of the PDE4 (PDE4H)
Assay: Assay II: replacement of [3H]-rolipram bound on particulate HARBS of whole brain
Parameters: species or system guinea pig
Settings: ratio of HARBS EC50 to PDE4 IC50
Experimental: The binding experiments are carried on basis of the methods of Schneider et al and Zhao et al with a small modification. Under a protocol approved by the Animal Care and Use Committee of Taipei Medical University, five male guinea pigs (Hartley), weighing 500-600 g, are anesthetized. The whole brains taken therefrom are homogenized with in 10 volumes of cold medium (pH 6.5) containing 20 mM Bis-tris, 2 mM benzamidine, 2 mM EDTA, 50 mM sodium chloride, 0.1 mM phenylmethanesulfonyl fluoride (PMSF), and 1 mM dithiothreitol. At 4[…], the homogenate is centrifuged at 170 g for 15 min for removing blood vessels and connective tissues, and the supernatant thereof is then re-centrifuged at 40,000 g for 30 min for separating the particulates from the cytosol of cells.
The final concentration of [^3H]-rolipram is 2 nM. […] After incubation, the reaction is stopped by transferring the reaction vessel to a bath of crashed ice. Then the reaction mixture is filtered through a punched glass fiber filter (Whatman GF/B) placed in a mini funnel, which is adopted to a 1.5 ml of Eppendorff's tube for collecting the filtrate in the mini centrifuge at 1000 rpm (100 g) for 10 seconds. […] The Whatman GF/B filter is mixed with 2 ml of cocktail and counted by the β-scintillation counter (Backman, Fullerton, Calif., USA) for counting the radioactivity thereof.

## COc1ccc(C2CC(=O)c3c(O)cc(O)cc3O2)cc1O (stereo not shown) [Hesperetin]
  PDE4H/PDE4L ratio (EC50/IC50): >11
